Target: NT-647-NHS-labeled AcrIIA1 (Listeria phage)
Experiment: MST

Substance: SpyCas9 (QB3 Macrolab) (from UniProt Q99ZW2 1-1368) (enzyme)
- Kd: 18 nM
